EC50 data for two compounds are collected here from ChEMBL document CHEMBL1131214, “Synthesis and biology of the conformationally restricted ACPD analogue, 2-aminobicyclo[2.1.1]hexane-2,5-dicarboxylic acid-I, a potent mGluR agonist” (J Med Chem, 1998).

The chains behind the UniProt entries cited, without tags or fusion partners. Where a name states a change or a piece, a line headed by the entry shows the natural chain unless it says otherwise.
UniProt Q14833: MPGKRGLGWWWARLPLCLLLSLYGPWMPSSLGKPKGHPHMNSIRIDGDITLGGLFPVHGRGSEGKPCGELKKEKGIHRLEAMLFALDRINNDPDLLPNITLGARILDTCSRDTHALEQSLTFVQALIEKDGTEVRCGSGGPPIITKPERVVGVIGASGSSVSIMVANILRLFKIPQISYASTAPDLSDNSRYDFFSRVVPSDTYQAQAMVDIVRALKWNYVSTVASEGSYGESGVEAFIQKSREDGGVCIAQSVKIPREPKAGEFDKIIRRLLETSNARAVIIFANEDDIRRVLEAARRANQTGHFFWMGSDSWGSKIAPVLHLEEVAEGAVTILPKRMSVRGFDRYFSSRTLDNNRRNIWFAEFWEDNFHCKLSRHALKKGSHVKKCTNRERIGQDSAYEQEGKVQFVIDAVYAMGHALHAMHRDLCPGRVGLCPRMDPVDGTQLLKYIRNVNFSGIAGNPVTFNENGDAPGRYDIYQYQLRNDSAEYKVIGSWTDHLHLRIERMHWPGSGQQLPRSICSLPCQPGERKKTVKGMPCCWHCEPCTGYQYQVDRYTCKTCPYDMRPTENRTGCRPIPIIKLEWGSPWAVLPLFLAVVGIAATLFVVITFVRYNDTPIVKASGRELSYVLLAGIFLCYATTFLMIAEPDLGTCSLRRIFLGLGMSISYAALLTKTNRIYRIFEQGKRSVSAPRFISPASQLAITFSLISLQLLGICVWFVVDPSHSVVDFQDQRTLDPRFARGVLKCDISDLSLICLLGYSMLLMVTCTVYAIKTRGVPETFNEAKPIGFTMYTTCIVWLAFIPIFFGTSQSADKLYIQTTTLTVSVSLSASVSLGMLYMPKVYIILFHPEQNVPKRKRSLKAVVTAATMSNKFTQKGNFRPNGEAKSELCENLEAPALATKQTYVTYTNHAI
UniProt Q13255: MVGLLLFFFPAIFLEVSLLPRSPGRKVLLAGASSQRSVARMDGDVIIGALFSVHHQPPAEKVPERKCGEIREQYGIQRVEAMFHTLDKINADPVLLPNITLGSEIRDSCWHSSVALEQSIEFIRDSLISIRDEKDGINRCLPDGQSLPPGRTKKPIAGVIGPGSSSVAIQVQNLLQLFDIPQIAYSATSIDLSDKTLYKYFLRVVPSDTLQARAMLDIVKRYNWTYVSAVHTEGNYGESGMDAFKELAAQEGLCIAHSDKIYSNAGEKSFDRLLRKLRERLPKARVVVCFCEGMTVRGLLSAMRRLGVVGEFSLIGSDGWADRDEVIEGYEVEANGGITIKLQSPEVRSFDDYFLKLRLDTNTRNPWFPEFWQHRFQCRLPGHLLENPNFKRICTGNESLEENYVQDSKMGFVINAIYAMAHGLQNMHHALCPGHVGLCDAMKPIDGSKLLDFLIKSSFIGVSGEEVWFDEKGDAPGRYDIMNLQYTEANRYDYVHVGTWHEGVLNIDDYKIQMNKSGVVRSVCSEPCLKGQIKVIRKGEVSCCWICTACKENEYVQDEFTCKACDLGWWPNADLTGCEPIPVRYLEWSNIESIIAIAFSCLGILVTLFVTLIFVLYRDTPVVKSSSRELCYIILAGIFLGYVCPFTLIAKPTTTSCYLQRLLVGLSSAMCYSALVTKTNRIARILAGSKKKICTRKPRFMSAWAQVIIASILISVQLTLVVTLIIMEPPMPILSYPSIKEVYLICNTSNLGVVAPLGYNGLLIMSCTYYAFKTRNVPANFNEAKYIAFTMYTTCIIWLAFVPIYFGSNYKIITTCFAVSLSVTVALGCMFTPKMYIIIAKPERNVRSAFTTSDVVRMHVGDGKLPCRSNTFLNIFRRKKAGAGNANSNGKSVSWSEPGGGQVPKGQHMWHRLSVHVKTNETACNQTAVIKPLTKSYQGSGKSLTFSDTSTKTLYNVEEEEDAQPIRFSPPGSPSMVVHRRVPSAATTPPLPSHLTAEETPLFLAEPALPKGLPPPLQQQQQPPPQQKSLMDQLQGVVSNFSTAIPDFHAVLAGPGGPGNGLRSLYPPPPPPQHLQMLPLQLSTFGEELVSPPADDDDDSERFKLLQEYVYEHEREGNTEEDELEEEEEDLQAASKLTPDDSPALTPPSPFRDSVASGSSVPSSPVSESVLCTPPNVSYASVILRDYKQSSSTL

Assay [1] deals with Metabotropic glutamate receptor 4 (Homo sapiens, UniProt Q14833). Nature of the assay: Compound was tested for the inhibition of Metabotropic glutamate receptor 4. A digest of the protocol: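 mGluR2 in CHO cells or mGluR4a in BHK cells. Preincubated 10 min at 37 °C in Locke's medium with 300 µM IBMX, then 10 min with 5 µM forskolin ± agonist. cAMP extracted with 0.1 M HCl and measured by RIA. Decrease in forskolin-induced cAMP given as % of the 1 mM glutamate maximum after basal subtraction. EC50 from logistic nonlinear regression.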

Assay [2] has as its target Metabotropic glutamate receptor 1 (Homo sapiens, UniProt Q13255). Nature of the assay: Compound was tested for the inhibition of Metabotropic glutamate receptor 1.

Consider `N[C@@]1(C(=O)O)CC[C@H](C(=O)O)C1`, for which the 50% effective concentration (EC50) in assay [1] was 50 µM; in assay [2], greater than 300 µM.

On to `N[C@@]1(C(=O)O)CC[C@@H](C(=O)O)C1` (racemic), for which the results for the EC50 in assay [1] and in assay [2] were 800 µM and 15 µM, respectively.
